{"source": "PubChem BioAssay AID2732", "about": "(Emory University Molecular Libraries Screening Center, 2010)", "note": "“And” between values parts separate entries of the source, which are not always exact repeats. Equal entries are not always repeated. Only a part is listed here, and it is no random draw. The source made the active and inactive calls.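 How the source made its calls: active means compounds that reduced the stress-induced luciferase reporter signal by more than about 70% of percent inhibition (limit read from the data); inactive means the rest.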", "data": [{"assay": "inhibitors of CHOP promoter induction, primary screen, cell-based, unfolded protein response, luciferase reporter (AID 2732);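 further: 0% = tunicamycin plus vehicle and 100% = wells without tunicamycin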", "conditions": "CHO-K1 CHOP-promoter luciferase, tunicamycin-induced, 15-18 h; at 10 µM; hits give high values", "values": [{"compound": "NC(=O)Nc1ccc([As](=O)(O)O)cc1", "inhibition": "inactive: 0.66%"}, {"compound": "CN(C(=O)Cc1ccccc1)[C@@H]1CC[C@]2(CCCO2)C[C@H]1N1CCCC1", "inhibition": "inactive: -7.6% and inactive: 19%"}, {"compound": "CCOP1(=S)c2c(C)nn(CCC#N)c2N=C(c2ccc(F)cc2)N1C", "note": "(configuration not stated)", "inhibition": "inactive: -14.8%"}, {"compound": "O=[N+]([O-])c1ccc2c(c1)nnn2O", "inhibition": "inactive: 30.3%"}, {"compound": "CCOP1(=S)c2c(C)nn(CCC#N)c2N=C(c2ccccc2F)N1C", "note": "(configuration not stated)", "inhibition": "inactive: 14%"}, {"compound": "O=P(Nc1nccs1)(c1ccccc1)c1nc2ccccc2s1", "note": "(configuration not stated)", "inhibition": "inactive: -34.4%"}, {"compound": "O=P(Nc1nccs1)(Oc1ccccc1)Oc1ccccc1", "inhibition": "inactive: -3.32%"}, {"compound": "CS(=O)(=O)c1cc([N+](=O)[O-])c2no[n+]([O-])c2c1", "inhibition": "inactive: -20.9%"}, {"compound": "Nc1ccccc1[As](=O)(O)c1ccccc1", "inhibition": "inactive: 2.92%"}, {"compound": "O=C(O)COc1ccc([As](=O)(O)O)cc1[N+](=O)[O-]", "inhibition": "inactive: 4.66%"}, {"compound": "Cc1ccc(NCCc2c([N+](=O)[O-])cc([N+](=O)[O-])cc2[N+](=O)[O-])cc1", "inhibition": "inactive: 23.4%"}, {"compound": "Nc1cccc2c([As](=O)(O)O)cccc12", "inhibition": "inactive: -16.3%"}, {"compound": "CCCOP(=S)(Nc1nc(N)cc(=O)[nH]1)OCCC", "inhibition": "inactive: -10.6%"}, {"compound": "COc1cc(C2NCCC3(OCCO3)C2(C)C)cc(OC)c1OC", "note": "(configuration not stated)", "inhibition": "inactive: -40.4%"}, {"compound": "CCOP(=O)(Nc1cccc2ccccc12)OCC", "inhibition": "inactive: -16.1%"}, {"compound": "O=C(OC1CN2CCC1CC2)c1ccc(Cl)cc1", "note": "(configuration not stated)", "inhibition": "inactive: 7.98%"}, {"compound": "CN(C(=O)Cc1ccc(Cl)c(Cl)c1)[C@@H]1CC[C@]2(CCCO2)C[C@H]1N1CCCC1", "inhibition": "inactive: -1.14%"}, {"compound": "COc1cc(C(=O)NCC2(N3CCOCC3)CCCCC2)cc(Cl)c1OC(C)C", "inhibition": "inactive: 43.6%"}, {"compound": "O=[As](O)(O)c1cccnc1", "inhibition": "inactive: -3.07%"}, {"compound": "O=[As](O)(c1cccc(O)c1)c1cccc(O)c1", "inhibition": "inactive: 1.88%"}, {"compound": "Cc1cccc(OCC(=O)OC2CN3CCC2CC3)c1", "note": "(configuration not stated)", "inhibition": "inactive: 6.42%"}, {"compound": "CC(C)/C=N\\N=C(\\N)N[N+](=O)[O-]", "inhibition": "inactive: 20.5%"}, {"compound": "CN(C(=O)Cc1ccc(Cl)c(Cl)c1)[C@@H]1CCCC[C@H]1N1CCCC1", "inhibition": "inactive: 2.99% and inactive: -3.3%"}, {"compound": "O=[As](O)(c1ccccc1Br)c1ccccc1Br", "inhibition": "inactive: 4.96%"}, {"compound": "O=P1(Nc2ccccn2)COc2ccccc2OC1", "inhibition": "inactive: 55.4%"}, {"compound": "CN(CCCl)Cc1cc(Cl)c(NC2=NCCN2)c(Cl)c1", "inhibition": "inactive: -9.47%"}, {"compound": "CCOP(=O)(Nc1ccc(C)cn1)OCC", "inhibition": "inactive: -2.37%"}, {"compound": "Clc1n[nH]nc1-c1nn[nH][15n]1", "inhibition": "inactive: 10.6%"}, {"compound": "CC(C)(C)C(=O)NC(Sc1ncccn1)C(Cl)(Cl)Cl", "note": "(configuration not stated)", "inhibition": "inactive: 9.96%"}, {"compound": "O=P1(Nc2ncccn2)COc2ccccc2OC1", "inhibition": "inactive: 2.37%"}, {"compound": "Nc1cccc([As](=O)(O)c2ccccc2)c1", "inhibition": "inactive: 0.63%"}, {"compound": "O=P1(Nc2ccc(Br)cn2)COc2ccccc2OC1", "inhibition": "inactive: 26.1%"}, {"compound": "Cc1ccc(OCC(=O)OC2CN3CCC2CC3)cc1", "note": "(configuration not stated)", "inhibition": "inactive: 23.3%"}, {"compound": "O=[As](O)(c1cccs1)c1cccs1", "inhibition": "inactive: -25.7%"}, {"compound": "Cc1nn(-c2ccccc2)c2c1P(=O)(N1CCOCC1)N(C)C(c1ccccc1)=N2", "note": "(configuration not stated)", "inhibition": "inactive: 28%"}, {"compound": "CC1CCC(C(C)C)C(OP(=O)(Nc2ccccn2)c2ccccc2)C1", "note": "(configuration not stated)", "inhibition": "active: 82.6%"}, {"compound": "CN(C)C1(CNC(=O)c2ccc(S(C)(=O)=O)cc2)CCCCC1", "inhibition": "inactive: 21.1%"}, {"compound": "O=C(/C=C/c1ccccc1)OC1CN2CCC1CC2", "note": "(configuration not stated)", "inhibition": "inactive: 0.13%"}, {"compound": "CCOC(=O)Nc1cccc([As](=O)(O)O)c1", "inhibition": "inactive: -3.98%"}, {"compound": "O=P(Nc1ccccn1)(c1cccc2ccccc12)c1cccc2ccccc12", "inhibition": "inactive: 14.9%"}, {"compound": "Cc1cc(SC(NC=O)C(Cl)(Cl)Cl)ncn1", "note": "(configuration not stated)", "inhibition": "inactive: -4.45%"}, {"compound": "O=[N+]([O-])c1ccc(Nc2ccc(Oc3ccc([N+](=O)[O-])cc3[N+](=O)[O-])cc2)c([N+](=O)[O-])c1", "inhibition": "inactive: 0.95%"}, {"compound": "CCOC(=O)Nc1ccc([As](=O)(O)O)c(O)c1", "inhibition": "inactive: 11.2%"}, {"compound": "Cc1cc(SC(NC(=O)c2ccccc2)C(Cl)(Cl)Cl)nc(C(C)C)n1", "note": "(configuration not stated)", "inhibition": "inactive: 22%"}, {"compound": "CCOC(=O)c1ccc(NC(=O)C(C)(CCl)SC)cc1", "note": "(configuration not stated)", "inhibition": "inactive: -11.3%"}, {"compound": "CCC(C)N(CC(C)C)C(=S)SC(NC(C)=O)C(Cl)(Cl)Cl", "note": "(configuration not stated)", "inhibition": "inactive: -24.1%"}, {"compound": "COP1(=S)c2c(C)nn(CCC#N)c2N=C(c2ccc(F)cc2)N1C", "note": "(configuration not stated)", "inhibition": "inactive: 0.61%"}, {"compound": "O=C(COc1ccccc1)OC1CN2CCC1CC2", "note": "(configuration not stated)", "inhibition": "inactive: 10.6%"}, {"compound": "COc1ccc(N/C(=N/P(=O)(N2CCOCC2)N2CCOCC2)N2CCOCC2)cc1", "inhibition": "inactive: 4.68%"}, {"compound": "Cc1c2c(nc3ccccc13)SC(C(Cl)Cl)C2", "note": "(configuration not stated)", "inhibition": "inactive: 51.1%"}, {"compound": "O=C(OC1CN2CCC1CC2)C12CC3CC(CC(C3)C1)C2", "note": "(configuration not stated)", "inhibition": "inactive: 3.65%"}, {"compound": "Cc1cc(=O)[nH]c(N[N+](=O)[O-])n1", "inhibition": "inactive: -2.1%"}, {"compound": "COc1ccc2nc(NP(=O)(c3ccccc3)c3ccccc3)sc2c1", "inhibition": "inactive: -30.1%"}, {"compound": "COc1cc(I)ccc1[As](=O)(O)O", "inhibition": "inactive: 13.9%"}, {"compound": "ClCCSc1nnc(-c2cccnc2)o1", "inhibition": "inactive: 1.14%"}, {"compound": "CC(C)c1ccc(OP(=O)(Nc2ccccn2)Oc2ccccc2F)cc1", "note": "(configuration not stated)", "inhibition": "inactive: 26%"}, {"compound": "CCN(CC)C(=S)SC(NC=O)C(Cl)(Cl)Cl", "note": "(configuration not stated)", "inhibition": "inactive: 19.5%"}, {"compound": "CC(C)NC(=O)NP(=O)(Oc1ccccc1)Oc1ccccc1", "inhibition": "inactive: 4.66%"}, {"compound": "O=[N+]([O-])c1cc([N+](=O)[O-])c(-c2ccn[nH]2)s1", "inhibition": "inactive: 13.7%"}, {"compound": "C[As](=O)(O)c1cccc(C(=O)O)c1", "inhibition": "inactive: 16%"}, {"compound": "O=[As](O)(c1ccc(O)cc1)c1ccccc1O", "inhibition": "inactive: -11.1%"}, {"compound": "Cc1ccc(OP(=O)(Nc2ccc([N+](=O)[O-])cn2)Oc2ccc(C)cc2)cc1", "inhibition": "inactive: -6.24%"}, {"compound": "Cc1ccc2nc3c(c(C)c2c1)CC(C(Cl)Cl)S3", "note": "(configuration not stated)", "inhibition": "inactive: 50.2%"}, {"compound": "Nc1cccc2ccc([As](=O)(O)O)cc12", "inhibition": "inactive: 20.6%"}, {"compound": "CCN(N=Nc1nonc1N)c1nonc1N", "inhibition": "inactive: 33.4%"}, {"compound": "O=P(Nc1nc2ccc(Cl)cc2s1)(c1ccccc1)c1ccccc1", "inhibition": "inactive: -79.6%"}, {"compound": "O=C(O)c1ccccc1[As](=O)(O)O", "inhibition": "inactive: 14.5%"}, {"compound": "CC(=O)Nc1ccc([As](=O)(O)O)cc1", "inhibition": "inactive: -2.52%"}, {"compound": "CCOP(=O)(Nc1ccccc1)OCC", "inhibition": "inactive: -9.19% and inactive: -18.6%"}, {"compound": "Cc1cc(SC(NC(=O)c2ccc(F)cc2)C(Cl)(Cl)Cl)ncn1", "note": "(configuration not stated)", "inhibition": "inactive: 8.82%"}, {"compound": "Cc1ccc(NP(=O)(Oc2ccccc2F)Oc2ccccc2F)nc1", "inhibition": "inactive: 1.87%"}, {"compound": "CN(C(=O)Cc1ccc(Cl)c(Cl)c1)[C@H]1CCCC[C@@H]1N1CCCC1", "inhibition": "inactive: -3.92% and inactive: -2.64%"}, {"compound": "Oc1ccccc1CNc1ccccn1", "inhibition": "inactive: 31.7%"}, {"compound": "Cc1c2non([O-])c-2c(C)[n+](=O)[n+]1[O-]", "inhibition": "active: 87.9%"}, {"compound": "O=C(NC(Sc1ccncn1)C(Cl)(Cl)Cl)c1ccccc1", "note": "(configuration not stated)", "inhibition": "inactive: 11.3%"}, {"compound": "CC(C)CC(=O)NC(Sc1ccc(Cl)cc1)C(Cl)(Cl)Cl", "note": "(configuration not stated)", "inhibition": "inactive: 50.9%"}, {"compound": "Nc1cc(N)c2nonc2c1[N+](=O)[O-]", "inhibition": "inactive: 5.25%"}, {"compound": "Cc1ccc(N/C(=N/P(=O)(N2CCOCC2)N2CCOCC2)N2CCOCC2)cc1", "inhibition": "inactive: 16.9%"}, {"compound": "NC(=O)c1cc([N+](=O)[O-])cc([N+](=O)[O-])c1N", "inhibition": "inactive: 4.72%"}, {"compound": "Clc1ccc(Cl)c(NC2=NCC(CBr)S2)c1", "note": "(configuration not stated)", "inhibition": "inactive: 5.28%"}, {"compound": "CN1CCCC(OC(=O)C(c2ccccc2)c2ccccc2)C1", "note": "(configuration not stated)", "inhibition": "inactive: -0.62%"}, {"compound": "COc1ccccc1OP(=O)(Nc1ccc(C)cn1)Oc1ccccc1OC", "inhibition": "inactive: 9.71%"}, {"compound": "Cc1ccc(OP(=O)(Nc2nccs2)Oc2ccc(C)cc2)cc1", "inhibition": "inactive: 8.66%"}, {"compound": "CCN(/C(=N/P(=O)(N1CCOCC1)N1CCOCC1)N1CCOCC1)c1ccc(OC)cc1", "inhibition": "inactive: 3.46%"}, {"compound": "Nc1ccc([As](=O)(O)c2ccc(N)cc2)cc1", "inhibition": "inactive: -6.1%"}, {"compound": "C[N+]1=C2C=CC=CC=C2SC12C([N+](=O)[O-])=CC([N+](=O)[O-])=C[C-]2[N+](=O)[O-]", "note": "(configuration not stated)", "inhibition": "active: 101%"}, {"compound": "CC1CCN(C(=O)Oc2c(Cl)cc(Cl)c3cccnc23)CC1", "inhibition": "inactive: 68%"}, {"compound": "CC(C)=N/N=C(\\N)N[N+](=O)[O-]", "inhibition": "inactive: -18.3%"}, {"compound": "CN(C)C(=O)OCCc1n(C)cc[n+]1C", "inhibition": "inactive: 4.97%"}, {"compound": "COc1ccc(C2=NCC(CBr)S2)cc1", "note": "(configuration not stated)", "inhibition": "inactive: 8.02%"}, {"compound": "Cc1ccc(NP(=O)(Oc2ccccc2)Oc2ccccc2)nc1", "inhibition": "inactive: 23.9%"}, {"compound": "O=[N+]([O-])c1cc([N+](=O)[O-])c(CCNc2ccccc2)c([N+](=O)[O-])c1", "inhibition": "inactive: -10.2%"}, {"compound": "O=[N+]([O-])c1cccc2n[nH]nc12", "inhibition": "inactive: 13%"}, {"compound": "CC(=O)N1C2C3N(C(C)=O)C1C1N(C(C)=O)C(C(N1C(C)=O)N3C(C)=O)N2C(C)=O", "inhibition": "inactive: 20.1%"}, {"compound": "O=[N+]([O-])c1ncn(CCn2ncnc2[N+](=O)[O-])n1", "inhibition": "inactive: 9.19%"}, {"compound": "CC(C)(C)C(=O)NC(Sc1ccncn1)C(Cl)(Cl)Cl", "note": "(configuration not stated)", "inhibition": "inactive: 4.21%"}, {"compound": "O=C(O)CNc1ccc([As](=O)(O)O)cc1", "inhibition": "inactive: -9.43%"}, {"compound": "O=[N+]([O-])c1cccc(NC2=NCC(CBr)S2)c1", "note": "(configuration not stated)", "inhibition": "inactive: 10.4%"}, {"compound": "O=C(Nc1cc([As](=O)(O)O)ccc1O)c1ccccc1", "inhibition": "inactive: 19.1%"}, {"compound": "O=[As](O)(c1ccccc1)c1ccc(O)cc1", "inhibition": "inactive: -7.43%"}, {"compound": "CC(=O)NC(SC(=S)N(C)C)C(Cl)(Cl)Cl", "note": "(configuration not stated)", "inhibition": "inactive: -68.1%"}, {"compound": "O=[N+]([O-])c1ncn(CCn2cnc([N+](=O)[O-])n2)n1", "inhibition": "inactive: 4.55%"}]}]}
